According to ChEMBL document CHEMBL3734689, “Enzyme kinetics and inhibition of histone acetyltransferase KAT8” (Eur J Med Chem, 2015):

Biological target: T1, Histone acetyltransferase KAT8 (Homo sapiens) (UniProt Q9H7Z6)
T1 sequence (whole entry): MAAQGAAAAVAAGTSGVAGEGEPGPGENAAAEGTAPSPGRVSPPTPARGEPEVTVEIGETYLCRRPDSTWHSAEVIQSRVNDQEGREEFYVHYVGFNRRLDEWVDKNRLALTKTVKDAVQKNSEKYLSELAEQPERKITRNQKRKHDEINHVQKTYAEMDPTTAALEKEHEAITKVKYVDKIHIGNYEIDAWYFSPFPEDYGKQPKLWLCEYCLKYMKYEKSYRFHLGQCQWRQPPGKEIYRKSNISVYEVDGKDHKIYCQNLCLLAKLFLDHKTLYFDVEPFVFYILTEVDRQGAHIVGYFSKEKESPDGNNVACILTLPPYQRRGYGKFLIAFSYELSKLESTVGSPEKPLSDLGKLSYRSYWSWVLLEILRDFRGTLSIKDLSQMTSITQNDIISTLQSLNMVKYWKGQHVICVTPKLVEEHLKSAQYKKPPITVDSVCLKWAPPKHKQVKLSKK
Test: Inhibition of recombinant N-terminal His6-tagged KAT8 (unknown origin) expressed in Escherichia Coli BL21 DE3 cells assessed as reduction of Co A level using histone H4 substrate at 400 uM after 15 mins by CPM fluorescence assay

inhibition: > 50%
SMILES: CCCCCCCCCCCCCCCc1cccc(O)c1C(=O)O
